The target in this test is Sodium- and chloride-dependent GABA transporter 1 (Homo sapiens, UniProt P30531). As to the kind of experiment: Displacement of [3H]Tiagabine from human recombinant GAT1 expressed in HEK293 cells by equilibrium binding assay. The class given is cell-based.

Amino acid sequences for entries named in this document (tags omitted). A change or cut given only in a name is not applied to a line headed by its entry.
UniProt P30531: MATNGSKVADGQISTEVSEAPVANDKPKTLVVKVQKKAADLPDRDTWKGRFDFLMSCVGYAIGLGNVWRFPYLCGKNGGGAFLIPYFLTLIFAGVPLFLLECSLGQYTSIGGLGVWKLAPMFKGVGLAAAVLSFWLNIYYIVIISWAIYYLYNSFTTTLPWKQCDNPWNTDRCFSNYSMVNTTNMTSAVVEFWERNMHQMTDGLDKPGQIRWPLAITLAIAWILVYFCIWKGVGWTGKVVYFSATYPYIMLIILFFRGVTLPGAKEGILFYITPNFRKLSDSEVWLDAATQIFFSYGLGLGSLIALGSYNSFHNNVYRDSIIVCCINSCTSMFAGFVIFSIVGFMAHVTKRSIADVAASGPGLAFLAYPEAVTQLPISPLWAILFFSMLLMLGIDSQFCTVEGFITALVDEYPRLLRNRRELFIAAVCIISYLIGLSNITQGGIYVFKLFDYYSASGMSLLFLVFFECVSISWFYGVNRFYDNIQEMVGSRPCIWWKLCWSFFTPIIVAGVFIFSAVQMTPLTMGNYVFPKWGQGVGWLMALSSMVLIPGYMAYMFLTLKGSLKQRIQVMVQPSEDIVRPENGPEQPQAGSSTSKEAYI

SMILES strings stand for the structures.

Consider `O=C(O)[C@@H]1CCCN(CCC=C(c2ccccc2)c2ccccc2)C1`, for which the Ki is 72.4 nM.

By Ki is commonly meant a dissociation constant, usually derived from enzyme kinetics or from competition with a known ligand.

The values above are taken from ChEMBL document CHEMBL1641586, “Stereospecific synthesis and structure-activity relationships of unsymmetrical 4,4-diphenylbut-3-enyl derivatives of nipecotic acid as GAT-1 inhibitors” (Bioorg Med Chem Lett, 2011).
